In paper PMC2784932 (Biochemistry, 2009):

Biological target: (Pro-Hyp-Gly)10
Experiment: critical concentration

critical concentration: 2 mg/mL
Substance: (Pro-Hyp-Gly)10 (peptide)
